Reference: patent publication US5917056A (priority 1995, dated 1999)

Test system: MCF7-ADR (resistant)
Assay: Cytotoxicity on tumour cell lines, MCF7-ADR (resistant)
Type: cell-based, Human
Details: exposure time 72 h

With `CCCCCC(=O)N[C@@H](C=C(C)C)[C@@H](O)C(=O)O[C@@H]1C(C)=C2[C@@H](OC(C)=O)C(=O)[C@@]3(C)[C@H]([C@H](OC(=O)c4ccccc4)[C@@]4(OS(=O)O[C@@H]14)C2(C)C)[C@]1(OC(C)=O)CO[C@@H]1C[C@@H]3O` (stereo partly drawn) [Compound 9, 13-[(2R,3S)-3-caproylamino-2-hydroxy-3-isobutenyl-propanoyl]-14β-hydroxybaccatine-III 1,14-sulfite] as the compound, how does the IC50 read?
Its IC50 is 16 nM.

With `CC(=O)O[C@H]1C(=O)[C@@]2(C)[C@H]([C@H](OC(=O)c3ccccc3)[C@]34OC(=S)O[C@H]3[C@H](OC(=O)[C@H](O)[C@H](CC(C)C)NC(=O)OC(C)(C)C)C(C)=C1C4(C)C)[C@]1(OC(C)=O)CO[C@@H]1C[C@@H]2O` [Compound 5, 13-[(2R,3S)-3-tert-butoxycarbonyl-amino-2-hydroxy-3-isobutyl-propanoyl]-14β-hydroxybaccatine III 1,14-thiocarbonate] as the compound, how does the IC50 read?
The IC50 was 18 nM.

`CCCCCC(=O)N[C@@H](C=C(C)C)[C@@H](O)C(=O)O[C@@H]1C(C)=C2[C@@H](OC(C)=O)C(=O)[C@@]3(C)[C@H]([C@H](OC(=O)c4ccccc4)[C@@]4(OC(=N)O[C@@H]14)C2(C)C)[C@]1(OC(C)=O)CO[C@@H]1C[C@@H]3O` [Compound 8, 13-[(2R,3S)-3-caproylamino-2-hydroxy-3-isobutenyl-propanoyl]-14β-hydroxybaccatine III 1,14-iminocarbonate] was tested. Which IC50 did it give?
Its IC50 is 21 nM.
